Laboratory results taken from patent US9669028B2, “Substituted 5-(pyrazin-2-yl)-1H-pyrazolo [3, 4-B] pyridine and pyrazolo [3, 4-B] pyridine derivatives as protein kinase inhibitors” (Arrien Pharmaceuticals LLC, priority 2011, dated 2017).

Molecular target: DYRK1A (Homo sapiens (Human), UniProt Q13627)
Test: In vitro DYRK1A inhibition assay
Format: biochemical
Experimental: Briefly, specific kinase/substrate pairs along with required cofactors were prepared in reaction buffer; 20 mM Hepes (pH 7.5), 10 mM MgCl2, 1 mM EGTA, 0.02% Brij35, 0.02 mg/ml BSA, 0.1 mM Na3VO4, 2 mM DTT, 1% DMSO. Compounds were delivered into the reaction, followed ˜20 min later by addition of a mixture of ATP (Sigma) and 33P ATP (PerkinElmer) to a final concentration of 10 μM. […] IC50 values and curve fits were obtained using Prism (GraphPad Software). Kinome tree representations were prepared using Kinome Mapper (http://www.reactionbiology.com/apps/kinome/mapper/Launch Kinome.htm).
The 2×DYRK1A/Ser/Thr 18 mixture was prepared in 50 mM HEPES pH 7.5, 0.01% BRIJ-35, 10 mM MgCl2, 1 mM EGTA.

CN1CCC(Nc2cncc(-c3cnc4[nH]cc(F)c4c3)n2)CC1 [Compound 142, 6-(3-fluoro-1H-pyrrolo[2,3-b]pyridin-5-yl)-N-(1-methylpiperidin-4-yl)pyrazin-2-amine]
IC50: < 500 nM
